The values below are quoted from earlier work in patent publication US20020147170A1 (priority 2000, published 2002).

The target of this data set is AT1A angiotensin II receptor (Rattus norvegicus, UniProt P25095, N111A). The note with it: basal inositol phosphate production; cited from earlier work.

B1: Asn at position 111 to Ala: AT1A angiotensin II receptor with Asn 111 mutated to Ala (protein, UniProt P25095 1-359, looked up, variant N111A)
Type-1 angiotensin II …: MALNSSAEDGIKRIQDDCPKAGRHSYIFVMIPTLYSIIFVVGIFGNSLVVIVIYFYMKLKTVASVFLLNLALADLCFLLTLPLWAVYTAMEYRWPFGNHLCKIASASVSFALYASVFLLTCLSIDRYLAIVHPMKSRLRRTMLVAKVTCIIIWLMAGLASLPAVIHRNVYFIENTNITVCAFHYESRNSTLPIGLGLTKNILGFLFPFLIILTSYTLIWKALKKAYEIQKNKPRNDDIFRIIMAIVLFFFFSWVPHQIFTFLDVLIQLGVIHDCKISDIVDTAMPITICIAYFNNCLNPLFYGFLGKKFKKYFLQLLKYIPPKAKSHSSLSTKMSTLSYRPSDNMSSSAKKPASCFEVE
B1: the constitutive activity result is recorded as “strong constitutive activity”.
